The values below come from patent publication US20130338152A1, “FLUOROPHENYL BICYCLIC HETEROARYL COMPOUNDS” (IRM LLC, priority 2011, published 2013).

By UniProt entry, the sequences of proteins in these tests, tags left out. Residues count along the entry.
UniProt P06213, 28-1382 limits assumed: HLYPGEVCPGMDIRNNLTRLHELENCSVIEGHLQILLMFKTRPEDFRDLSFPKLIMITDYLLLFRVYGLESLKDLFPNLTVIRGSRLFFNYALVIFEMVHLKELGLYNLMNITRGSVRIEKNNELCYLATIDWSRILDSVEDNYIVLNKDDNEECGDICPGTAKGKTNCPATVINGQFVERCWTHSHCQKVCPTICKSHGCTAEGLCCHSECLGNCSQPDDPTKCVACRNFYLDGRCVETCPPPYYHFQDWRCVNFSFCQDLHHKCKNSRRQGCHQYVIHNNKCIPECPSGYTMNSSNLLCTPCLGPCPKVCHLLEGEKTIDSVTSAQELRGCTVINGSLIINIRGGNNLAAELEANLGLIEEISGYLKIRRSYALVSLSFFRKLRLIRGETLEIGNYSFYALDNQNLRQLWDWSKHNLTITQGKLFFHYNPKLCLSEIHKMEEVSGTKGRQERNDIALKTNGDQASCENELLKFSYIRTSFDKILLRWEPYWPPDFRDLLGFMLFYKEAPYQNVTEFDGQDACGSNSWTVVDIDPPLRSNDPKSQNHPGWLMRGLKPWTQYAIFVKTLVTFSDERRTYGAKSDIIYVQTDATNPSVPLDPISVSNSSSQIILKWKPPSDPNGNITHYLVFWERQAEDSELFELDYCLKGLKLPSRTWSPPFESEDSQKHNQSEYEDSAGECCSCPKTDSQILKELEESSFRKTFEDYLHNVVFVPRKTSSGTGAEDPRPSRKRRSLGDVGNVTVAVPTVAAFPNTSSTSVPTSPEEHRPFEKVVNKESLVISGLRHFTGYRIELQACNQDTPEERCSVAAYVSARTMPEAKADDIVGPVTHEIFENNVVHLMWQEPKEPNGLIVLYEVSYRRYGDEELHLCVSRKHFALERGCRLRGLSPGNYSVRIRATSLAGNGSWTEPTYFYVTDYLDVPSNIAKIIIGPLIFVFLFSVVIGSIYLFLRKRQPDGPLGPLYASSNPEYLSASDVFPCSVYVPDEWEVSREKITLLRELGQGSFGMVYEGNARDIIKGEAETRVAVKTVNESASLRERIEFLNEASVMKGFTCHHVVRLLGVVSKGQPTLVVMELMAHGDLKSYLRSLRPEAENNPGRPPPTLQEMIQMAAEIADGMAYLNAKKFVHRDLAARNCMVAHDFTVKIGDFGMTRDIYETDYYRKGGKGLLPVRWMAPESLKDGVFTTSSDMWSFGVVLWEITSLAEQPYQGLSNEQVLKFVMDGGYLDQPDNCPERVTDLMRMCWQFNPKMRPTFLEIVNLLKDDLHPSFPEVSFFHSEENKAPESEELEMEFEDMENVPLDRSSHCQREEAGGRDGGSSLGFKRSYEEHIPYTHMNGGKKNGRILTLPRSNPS
UniProt O14965, whole entry: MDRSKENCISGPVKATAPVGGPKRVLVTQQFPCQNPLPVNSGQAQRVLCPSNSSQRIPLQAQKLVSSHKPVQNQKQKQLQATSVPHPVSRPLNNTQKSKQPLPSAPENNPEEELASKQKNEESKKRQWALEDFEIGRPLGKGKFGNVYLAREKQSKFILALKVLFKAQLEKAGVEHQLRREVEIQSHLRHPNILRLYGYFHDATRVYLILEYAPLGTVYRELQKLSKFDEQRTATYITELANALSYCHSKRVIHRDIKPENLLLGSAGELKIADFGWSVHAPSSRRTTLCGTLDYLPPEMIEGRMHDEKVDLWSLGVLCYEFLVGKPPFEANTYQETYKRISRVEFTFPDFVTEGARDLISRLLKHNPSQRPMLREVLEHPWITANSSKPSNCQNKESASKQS
UniProt P41279, whole entry: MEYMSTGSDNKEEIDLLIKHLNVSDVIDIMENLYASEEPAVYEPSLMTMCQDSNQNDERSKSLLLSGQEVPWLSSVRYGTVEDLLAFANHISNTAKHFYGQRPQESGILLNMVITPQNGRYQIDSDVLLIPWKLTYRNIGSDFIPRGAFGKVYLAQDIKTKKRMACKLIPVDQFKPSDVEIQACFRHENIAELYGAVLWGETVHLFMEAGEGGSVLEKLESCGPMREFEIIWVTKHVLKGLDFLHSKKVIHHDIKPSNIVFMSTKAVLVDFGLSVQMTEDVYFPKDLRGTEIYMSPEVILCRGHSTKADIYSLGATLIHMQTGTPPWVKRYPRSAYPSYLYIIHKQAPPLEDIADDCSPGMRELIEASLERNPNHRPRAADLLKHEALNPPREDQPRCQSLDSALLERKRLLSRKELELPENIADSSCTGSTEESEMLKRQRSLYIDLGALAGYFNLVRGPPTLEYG
UniProt P22455, 22-802 limits assumed: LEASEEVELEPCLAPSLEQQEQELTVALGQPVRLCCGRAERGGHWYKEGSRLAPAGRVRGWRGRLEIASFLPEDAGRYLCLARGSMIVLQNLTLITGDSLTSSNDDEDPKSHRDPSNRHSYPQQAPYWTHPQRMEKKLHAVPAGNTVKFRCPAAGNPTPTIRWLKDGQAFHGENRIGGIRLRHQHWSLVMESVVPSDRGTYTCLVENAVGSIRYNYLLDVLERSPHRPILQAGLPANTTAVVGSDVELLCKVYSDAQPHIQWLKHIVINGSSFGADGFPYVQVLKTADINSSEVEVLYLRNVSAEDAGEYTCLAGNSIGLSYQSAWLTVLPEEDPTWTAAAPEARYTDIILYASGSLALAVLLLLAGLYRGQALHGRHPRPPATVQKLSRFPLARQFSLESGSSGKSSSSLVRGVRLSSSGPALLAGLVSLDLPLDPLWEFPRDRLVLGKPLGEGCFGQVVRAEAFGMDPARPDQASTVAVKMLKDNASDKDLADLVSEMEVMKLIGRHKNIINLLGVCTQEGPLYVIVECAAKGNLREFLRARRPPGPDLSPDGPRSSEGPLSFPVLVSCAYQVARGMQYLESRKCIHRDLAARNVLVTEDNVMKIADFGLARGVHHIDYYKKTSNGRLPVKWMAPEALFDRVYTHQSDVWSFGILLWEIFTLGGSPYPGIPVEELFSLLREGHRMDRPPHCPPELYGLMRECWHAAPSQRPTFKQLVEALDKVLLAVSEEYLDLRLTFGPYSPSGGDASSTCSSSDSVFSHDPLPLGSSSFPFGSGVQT
UniProt P35968, 20-1356 limits assumed: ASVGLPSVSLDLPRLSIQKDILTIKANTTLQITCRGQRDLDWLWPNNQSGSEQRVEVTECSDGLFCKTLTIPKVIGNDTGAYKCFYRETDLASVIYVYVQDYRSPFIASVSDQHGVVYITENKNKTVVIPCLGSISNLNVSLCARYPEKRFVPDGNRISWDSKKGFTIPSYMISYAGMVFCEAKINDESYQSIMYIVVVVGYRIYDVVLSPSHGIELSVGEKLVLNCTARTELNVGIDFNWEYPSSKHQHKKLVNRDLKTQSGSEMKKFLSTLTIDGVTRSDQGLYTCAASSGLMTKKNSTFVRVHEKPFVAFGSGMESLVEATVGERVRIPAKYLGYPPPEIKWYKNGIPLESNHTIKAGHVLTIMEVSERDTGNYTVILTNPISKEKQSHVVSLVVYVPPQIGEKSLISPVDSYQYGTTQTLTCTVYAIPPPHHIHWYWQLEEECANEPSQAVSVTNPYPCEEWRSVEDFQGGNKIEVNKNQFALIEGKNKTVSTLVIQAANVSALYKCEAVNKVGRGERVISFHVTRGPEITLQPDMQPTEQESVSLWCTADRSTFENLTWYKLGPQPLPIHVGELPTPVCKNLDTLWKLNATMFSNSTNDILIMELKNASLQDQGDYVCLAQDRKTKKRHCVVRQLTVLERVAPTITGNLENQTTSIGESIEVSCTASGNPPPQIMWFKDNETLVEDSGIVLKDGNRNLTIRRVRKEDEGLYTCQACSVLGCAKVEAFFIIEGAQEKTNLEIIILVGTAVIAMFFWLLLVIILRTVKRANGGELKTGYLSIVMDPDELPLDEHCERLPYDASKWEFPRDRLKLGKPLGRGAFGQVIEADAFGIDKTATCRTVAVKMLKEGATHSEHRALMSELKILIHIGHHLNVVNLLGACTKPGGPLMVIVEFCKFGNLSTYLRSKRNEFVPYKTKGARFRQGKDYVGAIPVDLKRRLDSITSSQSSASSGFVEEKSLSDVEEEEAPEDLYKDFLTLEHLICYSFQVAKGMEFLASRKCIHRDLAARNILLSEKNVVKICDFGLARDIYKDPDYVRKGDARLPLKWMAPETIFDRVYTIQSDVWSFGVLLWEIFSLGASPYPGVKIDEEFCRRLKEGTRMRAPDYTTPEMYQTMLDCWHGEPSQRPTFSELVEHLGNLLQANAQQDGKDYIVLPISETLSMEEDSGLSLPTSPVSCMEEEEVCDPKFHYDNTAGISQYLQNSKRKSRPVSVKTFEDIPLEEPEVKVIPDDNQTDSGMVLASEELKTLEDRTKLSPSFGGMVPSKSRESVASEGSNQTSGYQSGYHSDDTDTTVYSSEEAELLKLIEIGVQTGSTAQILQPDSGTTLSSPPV
UniProt P16234, 24-1089 limits assumed: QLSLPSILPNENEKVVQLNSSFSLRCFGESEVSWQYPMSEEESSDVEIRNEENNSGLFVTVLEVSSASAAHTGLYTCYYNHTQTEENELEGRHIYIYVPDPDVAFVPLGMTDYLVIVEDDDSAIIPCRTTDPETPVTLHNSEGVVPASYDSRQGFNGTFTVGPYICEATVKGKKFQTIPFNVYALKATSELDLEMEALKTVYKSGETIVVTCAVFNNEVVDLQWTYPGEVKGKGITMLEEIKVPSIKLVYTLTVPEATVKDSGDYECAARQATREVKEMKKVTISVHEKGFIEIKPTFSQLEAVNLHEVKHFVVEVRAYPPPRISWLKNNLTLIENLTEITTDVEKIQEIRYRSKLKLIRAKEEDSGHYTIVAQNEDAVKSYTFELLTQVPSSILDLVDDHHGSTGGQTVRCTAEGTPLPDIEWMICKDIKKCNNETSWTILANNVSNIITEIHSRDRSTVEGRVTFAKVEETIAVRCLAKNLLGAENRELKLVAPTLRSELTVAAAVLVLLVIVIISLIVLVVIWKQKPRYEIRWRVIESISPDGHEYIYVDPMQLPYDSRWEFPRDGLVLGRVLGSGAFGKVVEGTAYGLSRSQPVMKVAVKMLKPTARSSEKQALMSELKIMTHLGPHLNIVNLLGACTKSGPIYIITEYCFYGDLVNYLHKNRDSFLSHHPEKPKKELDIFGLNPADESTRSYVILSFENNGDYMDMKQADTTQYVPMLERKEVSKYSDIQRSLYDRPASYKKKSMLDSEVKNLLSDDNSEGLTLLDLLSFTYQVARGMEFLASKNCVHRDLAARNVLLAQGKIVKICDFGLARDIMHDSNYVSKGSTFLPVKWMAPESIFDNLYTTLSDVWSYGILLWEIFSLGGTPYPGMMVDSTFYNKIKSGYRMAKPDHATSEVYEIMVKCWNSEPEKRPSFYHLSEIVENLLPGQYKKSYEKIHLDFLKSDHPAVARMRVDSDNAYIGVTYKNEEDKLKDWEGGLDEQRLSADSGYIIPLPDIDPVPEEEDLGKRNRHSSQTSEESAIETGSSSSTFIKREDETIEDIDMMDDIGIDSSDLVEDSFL
UniProt P00519, whole entry T315I: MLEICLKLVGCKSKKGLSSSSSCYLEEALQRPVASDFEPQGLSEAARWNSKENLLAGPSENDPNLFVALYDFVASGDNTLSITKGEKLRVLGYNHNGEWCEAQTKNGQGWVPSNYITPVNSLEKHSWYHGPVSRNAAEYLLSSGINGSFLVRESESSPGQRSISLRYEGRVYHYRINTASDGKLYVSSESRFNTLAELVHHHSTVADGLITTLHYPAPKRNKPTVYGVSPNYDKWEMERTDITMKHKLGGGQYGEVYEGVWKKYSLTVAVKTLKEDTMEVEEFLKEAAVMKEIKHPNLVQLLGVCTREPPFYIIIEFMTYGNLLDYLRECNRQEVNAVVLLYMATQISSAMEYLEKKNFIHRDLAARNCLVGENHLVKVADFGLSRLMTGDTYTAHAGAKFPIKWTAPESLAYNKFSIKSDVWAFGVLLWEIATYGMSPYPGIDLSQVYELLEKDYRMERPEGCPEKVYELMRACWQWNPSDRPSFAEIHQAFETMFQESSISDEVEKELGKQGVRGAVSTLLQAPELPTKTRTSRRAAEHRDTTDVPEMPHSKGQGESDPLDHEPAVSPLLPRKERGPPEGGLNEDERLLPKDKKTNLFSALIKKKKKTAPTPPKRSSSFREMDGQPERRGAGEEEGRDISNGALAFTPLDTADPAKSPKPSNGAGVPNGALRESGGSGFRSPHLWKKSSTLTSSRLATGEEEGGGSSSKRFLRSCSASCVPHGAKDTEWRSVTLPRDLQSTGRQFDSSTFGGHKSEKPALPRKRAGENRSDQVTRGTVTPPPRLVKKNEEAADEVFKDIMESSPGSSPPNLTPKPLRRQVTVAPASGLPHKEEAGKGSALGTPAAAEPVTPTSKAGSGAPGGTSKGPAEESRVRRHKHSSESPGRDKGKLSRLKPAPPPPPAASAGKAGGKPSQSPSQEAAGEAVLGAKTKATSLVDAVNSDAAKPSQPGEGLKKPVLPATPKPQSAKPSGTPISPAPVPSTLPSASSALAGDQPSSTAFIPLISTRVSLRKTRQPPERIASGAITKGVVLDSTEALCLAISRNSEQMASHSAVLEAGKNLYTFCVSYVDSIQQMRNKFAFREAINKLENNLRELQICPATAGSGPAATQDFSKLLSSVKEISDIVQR

Data set [1] has as its target IGF1R (Homo sapiens, UniProt P08069). Description: Enzymatic kinase assay (filter-binding/flashplate). It counts as biochemical. The conditions noted are these: read-out: IGF1R IC50 values.
Data set [2] concerns the target InsR (Homo sapiens, UniProt P06213). Description: Enzymatic kinase assay (filter-binding/flashplate). The conditions noted are these: read-out: InsR IC50 values. It counts as biochemical.
In data set [3] the target is Aurora A (Homo sapiens, UniProt O14965). Description: Enzymatic kinase assay. Format: biochemical. As to conditions: read-out: Aurora A IC50 values.
Data set [4] concerns the target CDK2A (Homo sapiens, UniProt P24941). Description: Enzymatic kinase assay. It counts as biochemical. As to conditions: read-out: CDK2A IC50 values.
The target in data set [5] is COT1 (Homo sapiens, UniProt P41279). Description: Enzymatic kinase assay. Format: biochemical. The conditions noted are these: read-out: COT1 IC50 values.
Data set [6] has as its target ERK2 (Homo sapiens, UniProt P28482). The data set can be described thus: Enzymatic kinase assay. Format: biochemical. The conditions noted are these: read-out: ERK2 IC50 values.
Data set [7] concerns the target EphA4 (Homo sapiens, UniProt P54764). The data set can be described thus: Enzymatic kinase assay. It counts as biochemical. As to conditions: read-out: EphA4 IC50 values.
In data set [8] the target is FGFR-4 (Homo sapiens, UniProt P22455). The data set can be described thus: Enzymatic kinase assay. Format: biochemical. The conditions noted are these: read-out: FGFR-4 IC50 values.
Data set [9] deals with GSK3beta (Homo sapiens, UniProt P49841). Description: Enzymatic kinase assay. The conditions noted are these: read-out: GSK3beta IC50 values. It counts as biochemical.
Data set [10] has as its target HER2 (Homo sapiens, UniProt P04626). Description: Enzymatic kinase assay. Format: biochemical. The conditions noted are these: read-out: HER2 IC50 values.
For data set [11], the target named is JAK2 (Homo sapiens, UniProt O60674). The data set can be described thus: Enzymatic kinase assay. It counts as biochemical. As to conditions: read-out: JAK2 IC50 values.
The target in data set [12] is KDR (Homo sapiens, UniProt P35968). Description: Enzymatic kinase assay. As to conditions: read-out: KDR IC50 values. Format: biochemical.
In data set [13] the target is LCK (Homo sapiens, UniProt P06239). Description: Enzymatic kinase assay. It counts as biochemical. The conditions noted are these: read-out: LCK IC50 values.
For data set [14], the target named is MK2 (Homo sapiens, UniProt P49137). The data set can be described thus: Enzymatic kinase assay. As to conditions: read-out: MK2 IC50 values. It counts as biochemical.
The target in data set [15] is P38a (Homo sapiens, UniProt Q16539). Description: Enzymatic kinase assay. Format: biochemical. As to conditions: read-out: P38a IC50 values.
The target in data set [16] is PDGFRa (Homo sapiens, UniProt P16234). The data set can be described thus: Enzymatic kinase assay. The conditions noted are these: read-out: PDGFRa IC50 values. Format: biochemical.
Data set [17] deals with PKA (Homo sapiens, UniProt P17612). The data set can be described thus: Enzymatic kinase assay. It counts as biochemical. As to conditions: read-out: PKA IC50 values.
Data set [18] concerns the target RET (Homo sapiens, UniProt P07949). Description: Enzymatic kinase assay. Format: biochemical. As to conditions: read-out: RET IC50 values.
Data set [19] has as its target TYK2 (Homo sapiens, UniProt P29597). The data set can be described thus: Enzymatic kinase assay. Format: biochemical. The conditions noted are these: read-out: TYK2 IC50 values.
Data set [20] addresses cABLT315 (Homo sapiens, UniProt P00519, T315I). The data set can be described thus: Enzymatic kinase assay. Format: biochemical. The conditions noted are these: read-out: cABLT315 IC50 values.
In data set [21] the target is cKIT (Homo sapiens, UniProt P10721). The data set can be described thus: Enzymatic kinase assay. It counts as biochemical. As to conditions: read-out: cKIT IC50 values.
Data set [22] deals with cMET (Homo sapiens, UniProt P08581). Description: Enzymatic kinase assay. It counts as biochemical. As to conditions: read-out: cMET IC50 values.
Data set [23] addresses hERG channels (Homo sapiens, UniProt Q12809).

SMILES strings stand for the structures. pIC50: −log10 of the molar value.

Broadly, the pIC50 is the negative decadic logarithm of the IC50, by convention in mol/L.

As for `COc1cc(Nc2cc(C)n[nH]2)nc(N2CCC[C@H]2c2cc(-c3ncccn3)no2)n1`, the pIC50 in data set [1] is 7.66; in data set [2] it was 7.68; in [3] it was 7.80; in data set [4] it was below 5.00; in [5] it was below 5.00; in data set [6], below 5.00. Moreover, the pIC50 in data set [7] is 6.38; in [8] it was below 5.00; in data set [9], 5.44; in data set [10], below 5.00; in [11], 6.05; in [12], 5.40. The pIC50 in data set [13] was 5.28; in data set [14], below 5.00; in [15], below 5.00; in [16], below 5.00; in data set [17], 5.68; in data set [18], 5.96. Further, the pIC50 was 6.15 in data set [19]; 6.59 in [20]; below 5.00 in [21]; 7.15 in data set [22]; below 4.52 in data set [23].
